Yeast mating assay 1: variants of the scFv Ab-14

Target peptide (SARS-CoV-2 spike, HR2 region): PDVDLGDISGINAS

The variants keep the light chain, the linker and the frameworks of Ab-14 (scFv order VH, the linker GGGGSGGGGSGGGGS, VL).
VH: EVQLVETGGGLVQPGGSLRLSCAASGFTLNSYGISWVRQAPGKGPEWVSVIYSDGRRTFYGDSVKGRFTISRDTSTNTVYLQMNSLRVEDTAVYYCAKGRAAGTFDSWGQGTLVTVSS
VL: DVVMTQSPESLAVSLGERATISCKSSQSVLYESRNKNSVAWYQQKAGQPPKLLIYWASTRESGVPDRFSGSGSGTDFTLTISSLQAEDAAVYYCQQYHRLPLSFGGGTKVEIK

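The parent was found by panning a naive human phage display library on the peptide. Library AAYL49 holds single substitutions and randomly drawn double and triple substitutions in the CDRs. AlphaSeq pools MATa yeast showing the antibodies with MATalpha yeast showing the peptide. Pairs that bind mate more often; barcode pairs of the diploids are counted by sequencing. Scores were corrected for input abundance and mapped to Kd with protein pairs of known affinity run in the same pool. Each pool was mated in three replicate cultures.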

Variants are written as CDR1, CDR2 and CDR3 of the heavy chain (limits as in the source). Parent: GFTLNSYGIS, VIYSDGRRTFYGDSVK, GRAAGTFDS. Affinities are written as log10 Kd with Kd in nM; a lower number is a better binder. The mean shown is taken over the replicates in which the pair was detected. A pair that was not seen in that replicate is written "ND"; this usually means weak binding, but a binder can also be missed. Background: pairings of library AAYL49 with three empty control strains gave a value in 15% of cases (median 4.06, 5th percentile 2.83). Values in that range, when seen in few replicates, are hard to tell from nonspecific mating. Also given: how often the same scFv was detected with the empty control strains, with their mean in brackets. In this assay the parent's reference entry averaged 0.65; its copy inside this library read 4.11 (one replicate of three).

| CDR-H1 | CDR-H2 | CDR-H3 | replicates, log10 nM | mean, log10 nM | control signals |
|---|---|---|---|---|---|
| GGTLESYGIS | VIYSDGRRTFYGDSVK | GRAAGTSDS | 1.64 / 1.58 / 1.96 | 1.73 | 0/9 |
| GFTWNSYGIS | VIYSDGRRTFYGDEVK | GRAAGTFTS | ND / ND / ND | ND | 0/9 |
| GFTLNSIGIS | VIYDDGRRTFYGDSVK | GRAAGLFDS | ND / ND / 4.49 | 4.49 | 1/9 (3.50) |
| GFTLGSYGIS | VIYSDGRRGFYGDSVK | SRAAGTFDS | ND / 4.77 / 3.75 | 4.26 | 3/9 (4.44) |
| GFTLNSYGIS | VIYSDGRKTFYGDEVK | GRAAGTFDS | 2.38 / 2.18 / 2.68 | 2.41 | 7/9 (4.79) |
| GFTLNSYGIS | VIYSDGRRTFYGDSRK | YRAAGTFDS | ND / ND / ND | ND | 2/9 (3.62) |
| GFTLNSYGIS | VIYSDGRRTFYGDEVK | RRAANTFDS | 1.05 / 1.20 / 1.22 | 1.15 | 3/9 (4.88) |
| GFRLNSYHIS | VIYSDGRRTFYGDSVK | GRAAGIFDS | 3.55 / 4.26 / ND | 3.91 | 4/9 (3.65) |
| GFTLNSKGIS | VIGSDGRRTFYGDSVK | GRAAGTFDY | 4.00 / 3.25 / ND | 3.62 | 6/9 (3.94) |
| GFTKESYGIS | LIYSDGRRTFYGDSVK | GRAAGTFDS | ND / ND / ND | ND | 1/9 (3.40) |
| GFTLNSYGIS | VIYVDGRRTFYGDSVK | GRAAGTFDS | 2.02 / 2.06 / 2.15 | 2.08 | 1/9 (3.88) |
| GFTLNSYGIS | VGYSDGRRTFYGDSVK | GRAAGTDGS | ND / ND / 4.60 | 4.60 | 1/9 (3.35) |
| GFDLNSYGIS | VIYSDDRRTFYGDSVK | GRAAGTDDS | ND / ND / 4.88 | 4.88 | 2/9 (4.47) |
| GFTLQSYGIS | VIYSDGQRTFMGDSVK | GRAAGTFDS | ND / ND / 3.31 | 3.31 | 3/9 (3.99) |
| GCTLNWYGIS | VIYLDGRRTFYGDSVK | GRAAGTFDS | ND / 3.28 / ND | 3.28 | 1/9 (2.96) |
| GFTLNSYGIS | VIYSDGRRTFYGDSSK | GRAAGTFDS | 2.67 / 2.43 / 2.50 | 2.54 | 1/9 (4.84) |
| GFTLNSYGIS | VIYSDGRGRFYGDSVK | GNAAGTFDS | ND / ND / 2.39 | 2.39 | 0/9 |
| HFTLNSYGIS | VIYSDGRRTYYGDSNK | GRAAGTFDS | ND / ND / ND | ND | 3/9 (4.02) |
| GFTLNSYGWS | VICSDGRRTFYGDSVK | GKAAGTFDS | ND / ND / ND | ND | 0/9 |
| GFTLNSYGIS | VIYLDGRRTFYGDSVV | GRAAGTFDR | ND / ND / ND | ND | 0/9 |
| GFTLNSQGIS | VIYSDGRRTFAGDSVK | GRAAGTFDY | ND / ND / ND | ND | 1/9 (4.36) |
| GFTLNSYGIS | VIYSDGRVMFYGDSVK | GRAAKTFDS | ND / ND / ND | ND | 0/9 |
| GFTLNSRGIN | VFYSDGRRTFYGDSVK | GRAAGTFDS | 3.99 / 4.30 / ND | 4.14 | 4/9 (3.93) |
| GFTLNNYGIS | VIYSDGRRFFKGDSVK | GRAAGTFDS | ND / ND / ND | ND | 0/9 |
| FFTLNSYGIS | VIYSDGRRTFYGDSVY | GRAAGTFDS | ND / ND / ND | ND | 0/9 |
| GFTLNSYTIS | VIYSDGRRTYYGDSVK | GRAAGTFES | ND / ND / 3.56 | 3.56 | 1/9 (3.28) |
| GFTLNSYGIS | VIYSDGRRTDYGDYVK | GAAAGTFDS | ND / ND / ND | ND | 0/9 |
| GHTLNSYTIS | VIYSDGRRTFYGDGVK | GRAAGTFDS | 6.16 / 4.08 / 4.07 | 4.77 | 3/9 (3.99) |
| GLTLNHYGIS | VIYKDGRRTFYGDSVK | GRAAGTFDS | 4.19 / ND / ND | 4.19 | 3/9 (3.79) |
| GFTLNSYGIS | VITSSGRRTFYGDGVK | GRAAGTFDS | 4.66 / 5.10 / ND | 4.88 | 4/9 (3.95) |

For reference, 3 entries of the list once more:

{"CDR-H1": "GGTLESYGIS", "CDR-H2": "VIYSDGRRTFYGDSVK", "CDR-H3": "GRAAGTSDS", "replicates, log10 nM": "1.64 / 1.58 / 1.96", "mean, log10 nM": "1.73", "control signals": "0/9"}
{"CDR-H1": "GFTLQSYGIS", "CDR-H2": "VIYSDGQRTFMGDSVK", "CDR-H3": "GRAAGTFDS", "replicates, log10 nM": "ND / ND / 3.31", "mean, log10 nM": "3.31", "control signals": "3/9 (3.99)"}
{"CDR-H1": "GFRLNSYHIS", "CDR-H2": "VIYSDGRRTFYGDSVK", "CDR-H3": "GRAAGIFDS", "replicates, log10 nM": "3.55 / 4.26 / ND", "mean, log10 nM": "3.91", "control signals": "4/9 (3.65)"}

Source: Engelhart et al. 2022 (doi:10.1038/s41597-022-01779-4), MIT Lincoln Laboratory and A-Alpha Bio; data file from the FLAb repository.